# Measured values: PubChem BioAssay (Tox21)
# The list shows a part of the results, in another mix than the full data. Results filed as inconclusive are left out. A call without a number means that no potency is given here. The source made the active and inactive calls. Calls come from the whole dose curve.
# Assay: p53 small molecule agonists, cell-based qHTS assay with rat liver microsomes: qHTS cell viability counter screen (AID 1963580); note: nearly all actives have a fitted effect of over 45% in size
# Conditions: p53RE-bla HCT-116 + rat microsomes, ATP viability, 16 h; series mostly up to 66 µM
# Source text: National Center for Advancing Translational Sciences [NCATS]
# Division of Preclinical Innovation [DPI]
# U.S. Environmental Protection Agency [EPA]
# National Institutes of Environmental Health Sciences [NIEHS]
# National Toxicology Program [NTP]
# U.S. Food and Drug Administration [FDA]
# p53, a tumor suppressor protein, is activated following cellular insult, including DNA damage and other cellular stresses. The activation of p53 regulates cell fate by inducing DNA repair, cell cycle arrest, apoptosis, or cellular senescence. The activation of p53, therefore, is a good indicator of DNA damage and other cellular stresses. The CellSensor p53RE-bla HCT-116 cell line contains a stably integrated beta-lactamase reporter gene under control of the p53 response elements. The activation of the reporter gene under culture conditions can be detected by fluorescence intensity. This cell line was used to screen the Tox21 10K compound library in the condition of presence of rat liver microsomes and to identify agonists that activate the p53 signaling pathway after in vitro metabolic activation (Ooka et al., Archive of Toxicology 96:1975-1987, 2022). The cytotoxicity of the Tox21 compound library against the p53 RE-bla HCT-116 cell line was tested in parallel by measuring the intra cellular ATP content in the same wells.
# Tox21 Assay Protocol Summary:
# The p53RE-bla cells were dispensed at 4,000cells/3ul/well in 1536-well black-clear bottom plates. After the assay plates were incubated at 37 C, 5% CO2 incubator for 5 hours, 23 nL of compounds dissolved in DMSO, positive controls or DMSO only was transferred to the assay plate. Following compound addition, 3 uL of rat liver microsomes (Molecular Toxicology, Boone, NC) at final concentration of 0.5 mg/mL and 1uL of B-Nicotinamide adenine dinucleotide 2'-phosphate (NADPH) at final concentration of 0.5 mg/mL were transferred to the assay plate. The plates were incubated at 37 C for 16 hours. 1 uL of LiveBLAzer detection mixture was added to each well and the plates were incubated at room temperature in the dark for 2 h. Fluorescence intensity at 460 and 530 nm emission and 405 nm excitation were measured by an Envision plate reader. For cell viability readout that measures cytotoxicity, 4 ul/well of CellTiter-Glo reagent was added into the assay plates using a Flying Reagent Dispenser. After 30 min incubation at room temperature, the luminescence intensity in the plates was measured using a ViewLux plate reader.
# Potency is the fitted concentration of half-maximal effect.
SMILES,Potency,"activity change, negative = cytotoxicity"
CCNC(C)Cc1ccc2c(c1)OCO2 (stereo not drawn),inactive,
NC(=O)Nc1ccc([As](=O)(O)O)cc1,inactive,
ClP(Cl)c1ccccc1,inactive,
CN(C(=O)Cc1ccc(Cl)c(Cl)c1)[C@H]1CC[C@@]2(CCCO2)C[C@@H]1N1CCCC1,inactive,
O=C(Cl)OCCOC(=O)Cl,inactive,
CCCCO[P+](=O)OCCCC,inactive,
CN(N=O)C(=N)N[N+](=O)[O-],inactive,
O=[P+](Oc1ccccc1)Oc1ccccc1,inactive,
O=[N+]([O-])c1ccc(S(=O)(=O)O)c([N+](=O)[O-])c1,inactive,
CCC(C)(OOC(C)(C)C)OOC(C)(C)C,,inactive: 3.64% [at 13.5 µM]
CCOC(=O)Cl,inactive,
CN(C(=O)Cc1cccc2occc12)[C@H]1CC[C@@]2(CCCO2)C[C@@H]1N1CCCC1,inactive,
Cc1cc([N+](=O)[O-])c(O)c([N+](=O)[O-])c1,inactive,
CCCCOP(OCCCC)OCCCC,inactive,
O=[N+]([O-])c1ccc([N+](=O)[O-])cc1,inactive,
COP(=S)(Cl)OC,inactive,
Cc1cc([N+](=O)[O-])cc([N+](=O)[O-])c1O,inactive,
O=C(Cl)Oc1ccccc1,inactive,
CC(C)OP(=S)(OC(C)C)SCCNS(=O)(=O)c1ccccc1,inactive,
CC(C)CCCCCCCOP(OCCCCCCCC(C)C)Oc1ccccc1,inactive,
O=[As]c1ccccc1 (stereo not drawn),active: 4.08 µM,
COC(=O)Cl,inactive,
CN(C(=O)Cc1ccccc1)[C@H]1CC[C@@]2(CCCO2)C[C@@H]1N1CCCC1,inactive,
O=P(Cl)(Cl)c1ccccc1,inactive,
O=P(Cl)(Oc1ccccc1)Oc1ccccc1,inactive,
O=[p+]1oc2ccccc2c2ccccc21 (stereo not drawn),inactive,
CCOP(=S)(CC)Sc1ccccc1 (stereo not drawn),inactive,
CCCCC(CC)CO[P+](=O)OCC(CC)CCCC (stereo not drawn),inactive,
